## scFv variants of Ab-14 (heavy chain) against a SARS-CoV-2 spike peptide

Data: MIT Lincoln Laboratory AlphaSeq set, Li et al. 2023, doi:10.1038/s41467-023-39022-2, as distributed in FLAb.

Binding partner: SARS-CoV-2 spike HR2 peptide, sequence PDVDLGDISGINAS.

Parent: Ab-14, a human scFv built as VH, three GGGGS repeats, VL. Only the CDRs of the heavy chain vary.
VH: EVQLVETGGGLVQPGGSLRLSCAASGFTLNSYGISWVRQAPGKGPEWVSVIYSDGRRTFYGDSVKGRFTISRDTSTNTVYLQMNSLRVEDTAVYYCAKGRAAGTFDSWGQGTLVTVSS
VL: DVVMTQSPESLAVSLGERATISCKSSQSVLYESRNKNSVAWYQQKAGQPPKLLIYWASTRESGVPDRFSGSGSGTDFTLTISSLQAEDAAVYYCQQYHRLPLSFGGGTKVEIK

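Phage display of a naive human antibody library on the peptide gave the parent. The variants were designed computationally from a first round of random CDR variants and then made and measured. Several design methods are mixed in this list. The assay is AlphaSeq: two haploid yeast populations carry antibody and antigen on their surface. Pairs that bind mate more often; barcode pairs of the diploids are counted by sequencing. A regression on co-assayed BCL2-family reference pairs converts the normalised counts of each replicate to an apparent Kd. Each pool was mated in six replicate cultures.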

Variants are written as CDR1, CDR2 and CDR3 of the heavy chain (limits as in the source). Parent: GFTLNSYGIS, VIYSDGRRTFYGDSVK, GRAAGTFDS. Variants here have more than six changes. Each Kd is an estimate from the mating assay, the geometric mean of the replicates in which the pair was seen; lower is stronger. Where no diploid with the target was found in any replicate, the entry reads "nd": below detection, most likely a poor binder, though not proof of it.

CDR-H1,CDR-H2,CDR-H3,Kd (apparent),replicates with signal
GFDLNEYGIS,VIYADGMRTVYADSVK,GANAGTFDI,230 pM,6/6
GFDLEEYGIS,VIYADGRRTFYSDSVK,GEAAGTFDL,460 pM,6/6
EFNLEEFGIS,VIYADGKRTAYVPNVK,GHLGGHFDM,nd,0/6
GFDLNEYGIS,VIYADGQRTAYADDVK,GEVAGTFDQ,790 pM,6/6
GFDLNEYGIS,VIYADGRRTAYADSVK,GETAGTFDT,2.0 nM,6/6
GFDLNEYGIS,VIYADGLRTAYADSVK,GGNAGTFDV,63 pM,5/6
GFALDEYGIS,VIYADGTRSAYLETVK,GHVGADFIV,9.1 µM,1/6
GFDLNEYGIS,VIYADGRRTYYADSVK,GNVAGTFDS,340 pM,6/6
GKSLDEYGIS,VIYADGLRMVYANSVK,GQLTDTLLL,nd,0/6
GDDLEEYGIS,VIYADGRRSAYTDNVK,GHAGNIFMS,nd,0/6
GFDLNEYGIS,VIYADGKRTAYVDSVK,GNVAGTFDI,230 pM,6/6
GFDLQEYGVS,VIYADGRRAQYASKFK,GNFSGNFDK,260 pM,6/6
GFDLNEYGIS,VIYADGKRTAYIDSVK,GEVAGTFDA,550 pM,6/6
EFDLNEYGIS,VIYADGHRSFYADHVK,GQVAGIFFM,nd,0/6
GFDLDNEGIS,VIYADGIRTSYQDSVK,GQNVATFNV,nd,0/6
GFDLNEYGIS,VIYADGQRTFYKDSVK,GTNGGTFDV,180 pM,6/6
GFDLNEYGIS,VIYADGSRTFYADSVK,GETAGSFDQ,1.2 nM,6/6
GFDLNEYGIS,VIYADGVRTYYADDVK,GNVAGTFDI,600 pM,6/6
GPNLEEYGIS,VIYADGIRTAYKDSVK,GDVAGYFVF,470 nM,1/6
GFTLNLYGIS,VIYSDGRRVFWDDSVK,GQLAGSFDS,nd,0/6
GKSLEEYGIS,VIYADGKRSMYANNVK,GHVGYIFMM,nd,0/6
GFDLNEYGIS,VIYADGMRTYYADDVK,GNNAGTFDV,390 pM,6/6
GFDLNEYGIS,VIYADGQRTFYADSVK,GNQAGTFDL,250 pM,6/6
GFQLDEYGIS,VIYADGERTMYSNRVK,GNEGGTFDM,nd,0/6
GFDLNEYGIS,VIYADGIRTAYADSVK,GNVAGTFDV,630 pM,6/6
GFDLNEYGIS,VIYADGRRTFYSDSVK,GENAGTFDQ,260 pM,6/6
GFDLDEYGIS,VIYADGKRTAYSDSVK,GGNAGTFDV,870 pM,6/6
GFELDEYGIS,VIYADGKRKFYDQAVK,GKTGGVILD,nd,0/6
GFDLDEYGIS,VIYADGQRTFYADSVK,GELAGTFDS,390 pM,6/6
GFDLEEYGIS,VIYADGSRTFYSDSVK,GEAAGTFDM,4.0 nM,6/6
GFDLDEYGIS,VIYADGMRTAYADSVK,GNNAGTFDM,270 pM,6/6
GFDLDEYGIS,VIYADGMRTAYSDSVK,GEVAGTFDM,400 pM,6/6
GFNLDEYGIS,VIYADGMRTAYADSVK,GNQAGTFDL,370 pM,6/6
GFDLNEYGIS,VIYADGMRTAYQDSVK,GNVAGTFDT,500 pM,6/6
GFNLDEYGIS,VIYADGQRTRYANDVK,GGYGGIMLS,nd,0/6
GFDLDEYGIS,VIYADGRRTFYIDSVK,GETAGTFDF,440 pM,6/6
GFDLEKYGIS,VIYADGIRKVYDQSVK,GQMAGAFTV,nd,0/6
GFDLDEYGIS,VIYADGMRTAYADSVK,GENAGTFVM,nd,0/6
GFDLNEYGIS,VIYADGQRTAYADSVK,GTNAGTFDQ,830 pM,6/6
GFILDEYGVS,VIYADGIRTQYTNDVK,GLYSGAFVI,nd,0/6
GFDLNEYGIS,VIYADGRRSFYADSVK,GQLAGTFDT,310 pM,6/6
GFSLDEYGIS,VIYADGMRTFYADSVK,GNVAGTFDV,480 pM,6/6
GFDINEMGIS,VIYADGQRLFYADEVK,GENTGSFDM,nd,0/6
GFDLNEYGIS,VIYADGVRTAYADSVK,GQVAGTFDL,290 pM,6/6
GETTDSYGIS,VIYEDGRRTFEGDSVK,TRAAGTALS,nd,0/6
GFDLNEYGIS,VIYADGQRTAYADSVK,GKAAGTFDQ,160 pM,6/6
GFDLNEYGIS,VIYADGVRTAYADSVK,GETAGTFDT,370 pM,6/6
GFDLNEYGIS,VIYADGRRTAYADDVK,GEVAGTFDM,160 pM,6/6
GFDLNEYGIS,VIYADGMRTAYSDSVK,GTNAGTFDQ,200 pM,6/6
GFDLNEYGIS,VIYADGRRTFYADSVK,GVNAGTFDV,190 pM,6/6
GFDLNEYGIS,VIYADGKRTAYADNVK,GNQAGTFDV,970 pM,6/6
GFDLDEYGIS,VIYADGQRTAYADSVK,GNEAGTFDM,1.2 nM,6/6
GFSLEEYGIS,VIYADGKRDVYADSVK,GSESGWFDI,nd,0/6

Repeated from above, the 9 best binders with a signal in all replicates:

CDR-H1,CDR-H2,CDR-H3,Kd (apparent),replicates with signal
GFDLNEYGIS,VIYADGQRTAYADSVK,GKAAGTFDQ,160 pM,6/6
GFDLNEYGIS,VIYADGRRTAYADDVK,GEVAGTFDM,160 pM,6/6
GFDLNEYGIS,VIYADGQRTFYKDSVK,GTNGGTFDV,180 pM,6/6
GFDLNEYGIS,VIYADGRRTFYADSVK,GVNAGTFDV,190 pM,6/6
GFDLNEYGIS,VIYADGMRTAYSDSVK,GTNAGTFDQ,200 pM,6/6
GFDLNEYGIS,VIYADGKRTAYVDSVK,GNVAGTFDI,230 pM,6/6
GFDLNEYGIS,VIYADGMRTVYADSVK,GANAGTFDI,230 pM,6/6
GFDLNEYGIS,VIYADGQRTFYADSVK,GNQAGTFDL,250 pM,6/6
GFDLNEYGIS,VIYADGRRTFYSDSVK,GENAGTFDQ,260 pM,6/6

The parent sequence was in this pool as ten entries: three were never detected, three once, and four in most replicates, with averages from 2.2 nM to 240 nM. Nonspecific signal, from three strains lacking the peptide, appeared in 1% of pairings of all heavy chain designs, centred on 120 nM (5% of these signals below 7.0 nM); values are not corrected for it. In the paper, a design with two or fewer of six values counts as a poor binder. A sequence measured in both rounds can read differently, since the two assays cover different ranges.